Molecular target: Acetylcholinesterase (Homo sapiens, UniProt P22303)
Assay: Reactivation of tabun-induced inhibition of human AChE assessed as dissociation constant using acetylthiocholine as substrate preincubated for 30 mins followed by substrate addition measured at 5 to 180 mins by Ellman's method

With `COc1cc2c(cc1OC)CN(CC1CCN(Cc3cc(Br)cc(/C=N/O)c3O)CC1)CC2` as the molecule, how does the Kd read?
Its Kd is 7.2 µM.

`COc1cc2c(cc1OC)CN(CC1CCN(Cc3cc(Cl)cc(/C=N/O)c3O)CC1)CC2` was tested. Which Kd did it give?
Its Kd is 8.9 µM.

For `COc1cc(/C=N/O)c(O)c(CN2CCC(CN3CCc4cc(OC)c(OC)cc4C3)CC2)c1`, which Kd is on record?
The Kd was 51 µM.

`COc1cc2c(cc1OC)CN(CC1CCN(Cc3cc(F)cc(/C=N/O)c3O)CC1)CC2` was tested. Which Kd did it give?
Its Kd is 53 µM.

From ChEMBL document CHEMBL4043104, “Conjugates of salicylaldoximes and peripheral site ligands: Novel efficient nonquaternary reactivators for nerve agent-inhibited acetylcholinesterase” (2017)
